Experimental data from ChEMBL document CHEMBL5096194, “Development of Alectinib-Based PROTACs as Novel Potent Degraders of Anaplastic Lymphoma Kinase (ALK)” (J Med Chem, 2021).

The chains behind the UniProt entries cited, without tags or fusion partners. Where a name states a change or a piece, a line headed by the entry shows the natural chain unless it says otherwise.
UniProt Q9UM73: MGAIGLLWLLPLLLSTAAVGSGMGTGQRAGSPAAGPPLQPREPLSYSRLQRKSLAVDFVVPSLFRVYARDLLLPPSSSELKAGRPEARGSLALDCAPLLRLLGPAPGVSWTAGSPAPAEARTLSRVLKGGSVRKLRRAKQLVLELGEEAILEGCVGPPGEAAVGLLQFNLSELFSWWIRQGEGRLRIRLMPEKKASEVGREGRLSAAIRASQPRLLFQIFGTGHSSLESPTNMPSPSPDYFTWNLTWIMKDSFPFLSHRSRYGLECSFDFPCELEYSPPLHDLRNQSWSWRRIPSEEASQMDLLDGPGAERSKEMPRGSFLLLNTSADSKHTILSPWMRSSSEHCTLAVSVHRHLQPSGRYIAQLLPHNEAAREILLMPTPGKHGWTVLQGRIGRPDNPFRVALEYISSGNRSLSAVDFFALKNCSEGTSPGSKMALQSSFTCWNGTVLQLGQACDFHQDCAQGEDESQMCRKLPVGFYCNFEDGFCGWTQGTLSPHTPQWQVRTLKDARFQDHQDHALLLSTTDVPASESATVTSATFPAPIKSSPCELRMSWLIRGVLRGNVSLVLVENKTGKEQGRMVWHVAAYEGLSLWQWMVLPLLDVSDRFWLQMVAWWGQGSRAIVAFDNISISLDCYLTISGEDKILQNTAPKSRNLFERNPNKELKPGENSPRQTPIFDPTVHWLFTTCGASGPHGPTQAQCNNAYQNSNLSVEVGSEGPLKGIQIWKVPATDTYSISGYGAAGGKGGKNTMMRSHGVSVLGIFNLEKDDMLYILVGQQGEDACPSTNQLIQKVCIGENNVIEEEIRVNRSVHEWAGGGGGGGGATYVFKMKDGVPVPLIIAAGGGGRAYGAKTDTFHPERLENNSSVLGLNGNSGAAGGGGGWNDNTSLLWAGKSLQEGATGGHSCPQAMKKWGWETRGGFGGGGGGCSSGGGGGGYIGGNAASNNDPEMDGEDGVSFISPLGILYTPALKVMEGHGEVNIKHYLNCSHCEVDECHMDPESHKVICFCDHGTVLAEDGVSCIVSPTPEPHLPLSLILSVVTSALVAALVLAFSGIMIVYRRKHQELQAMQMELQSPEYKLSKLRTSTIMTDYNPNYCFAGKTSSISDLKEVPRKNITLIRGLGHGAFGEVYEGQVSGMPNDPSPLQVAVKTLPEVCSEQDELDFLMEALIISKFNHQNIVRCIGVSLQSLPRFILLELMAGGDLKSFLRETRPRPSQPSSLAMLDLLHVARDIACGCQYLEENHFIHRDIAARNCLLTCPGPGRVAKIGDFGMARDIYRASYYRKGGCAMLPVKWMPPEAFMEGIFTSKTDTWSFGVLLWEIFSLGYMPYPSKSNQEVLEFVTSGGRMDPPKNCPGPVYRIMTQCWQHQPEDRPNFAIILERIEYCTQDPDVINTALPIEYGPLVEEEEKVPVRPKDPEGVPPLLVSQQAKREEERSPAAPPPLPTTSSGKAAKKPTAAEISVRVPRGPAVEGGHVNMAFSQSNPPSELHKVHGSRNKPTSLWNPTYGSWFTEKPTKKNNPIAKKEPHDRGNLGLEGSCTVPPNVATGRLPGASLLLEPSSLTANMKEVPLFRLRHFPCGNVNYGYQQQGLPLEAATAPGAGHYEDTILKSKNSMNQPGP

Molecular target: ALK tyrosine kinase receptor (Homo sapiens, UniProt Q9UM73)
Assay: Potency index, ratio of Alectinib IC50 to test compound IC50 for binding affinity to ALK (unknown origin) using TK as substrate incubated for 1 hr in presence of ATP by HTRF analysis

Ratio IC50 | Compound
> 3 | CCc1cc2c(cc1N1CCC(N3CCNCC3)CC1)C(C)(C)c1[nH]c3cc(C#N)ccc3c1C2=O
> 3 | CCc1cc2c(cc1N1CCNCC1)C(C)(C)c1[nH]c3cc(C#N)ccc3c1C2=O
